In the test the test system is MMTV-PyMT mouse breast tumor.

Where two headings read alike, the source gives them in different places.

With `O=P1(N(CCCl)CCCl)NCCCO1` (centres unmarked) [CPP, cyclophosphamide], the “sensitivity by viability assay readings” value is given as “insensitive”.

As for `COc1cccc2c1C(=O)c1c(O)c3c(c(O)c1C2=O)C[C@@](O)(C(=O)CO)C[C@@H]3O[C@H]1C[C@H](N)[C@H](O)[C@H](C)O1` [Doxorubicin], the “sensitivity by viability assay readings” value (day 12 compared to day 0, CPP 20 μM, DOX 100 nM, TAXOL 1 nM) is listed as “sensitive”.

Values taken from patent publication US20220187281A1, “METHODS AND SYSTEMS FOR EVALUATION OF CELL SAMPLES” (priority 2019, published 2022).
